Data as given in patent publication US8735444B2, “Fluorinated rhodamines as photostable fluorescent dyes for labelling and imaging techniques” (Max-Planck-Gesellschaft zur Foerderung der Wissenschaften …, priority 2009, dated 2014).

Assay: Spectral properties of the fluorinated rhodamines (absorption, emission, quantum yield, lifetime)
Assay type: physicochemical
Settings: aqueous buffer at pH 7

ΦFL: 0.28
τFL: 1.6 ns
Substance: 2,7-Difluoro-5′(6′)-methoxycarbonyl-N,N,N′,N′-tetramethyl-rhodamine [Compound 28]
